In ChEMBL document CHEMBL1127728, “Docking analysis of a series of benzylamino acetylcholinesterase inhibitors with a phthalimide, benzoyl, or indanone moiety” (J Med Chem, 1994):

Target: T1, Acetylcholinesterase (Rattus norvegicus, UniProt P37136)
T1 sequence (P37136 whole entry): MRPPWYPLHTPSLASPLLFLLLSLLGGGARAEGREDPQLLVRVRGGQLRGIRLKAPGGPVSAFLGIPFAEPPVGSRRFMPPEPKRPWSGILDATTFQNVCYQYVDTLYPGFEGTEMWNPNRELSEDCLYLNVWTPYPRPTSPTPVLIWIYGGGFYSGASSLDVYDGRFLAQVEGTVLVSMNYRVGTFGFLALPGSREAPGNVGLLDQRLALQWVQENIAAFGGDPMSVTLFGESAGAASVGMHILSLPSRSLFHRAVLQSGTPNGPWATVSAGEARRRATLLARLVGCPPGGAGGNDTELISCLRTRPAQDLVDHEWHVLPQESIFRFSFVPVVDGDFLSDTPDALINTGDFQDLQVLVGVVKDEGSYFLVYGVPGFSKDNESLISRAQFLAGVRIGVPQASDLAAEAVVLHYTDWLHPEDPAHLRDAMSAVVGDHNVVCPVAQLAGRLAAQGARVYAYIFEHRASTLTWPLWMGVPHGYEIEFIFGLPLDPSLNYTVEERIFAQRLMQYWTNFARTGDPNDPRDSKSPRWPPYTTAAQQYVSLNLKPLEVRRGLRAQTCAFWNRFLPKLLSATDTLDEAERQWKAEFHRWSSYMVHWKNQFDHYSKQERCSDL
Assay: Inhibition concentration against rat acetylcholinesterase

SMILES	IC50
O=C(CC1CCN(Cc2ccccc2)CC1)c1ccc(N2CCCC2)cc1	19 µM
CN(CCCCN1C(=O)c2ccc([N+](=O)[O-])cc2C1=O)Cc1ccccc1	8.23 µM
